# scFv variants of Ab-14 (heavy chain) against a SARS-CoV-2 spike peptide

Values reported by Engelhart et al. 2022, doi:10.1038/s41597-022-01779-4 (FLAb copy).

Antigen: PDVDLGDISGINAS, a 14-residue peptide of the SARS-CoV-2 spike HR2 region.

Parent: Ab-14, a human scFv built as VH, three GGGGS repeats, VL. Only the CDRs of the heavy chain vary.
VH: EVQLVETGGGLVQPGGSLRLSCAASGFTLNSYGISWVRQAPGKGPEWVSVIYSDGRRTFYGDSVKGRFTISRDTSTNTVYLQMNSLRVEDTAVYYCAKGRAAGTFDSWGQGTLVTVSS
VL: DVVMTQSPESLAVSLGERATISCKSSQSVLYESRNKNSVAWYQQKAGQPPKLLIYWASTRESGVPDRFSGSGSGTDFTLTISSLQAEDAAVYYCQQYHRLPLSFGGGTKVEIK

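Phage display of a naive human antibody library on the peptide gave the parent. Variants in AAYL49 differ from the parent at up to three CDR positions; double and triple changes were sampled at random. Affinity was read by AlphaSeq, a pooled yeast mating assay with surface-displayed partners. The frequency of each diploid, read from paired DNA barcodes, reflects how well the two displayed proteins bind. Read counts were normalised to the haploid input and turned into Kd by a linear fit to BCL2-family pairs of known affinity, for each replicate. Each pool was mated in three replicate cultures.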

The parent's heavy chain CDRs are GFTLNSYGIS, VIYSDGRRTFYGDSVK, GRAAGTFDS; each variant's own CDRs replace them letter for letter.
This list gathers variants with a substitution at R56 (VH, numbered from residue 1).
Scale: log10 of Kd in nM, estimated from mating counts; low values are strong binders.
Averages over replicates are reported, and they cover detected replicates only.
An entry "no signal" has no value in the source: the pair was not observed among the diploids in any replicate. This suggests poor binding but is not conclusive.
For reference, the parent read 0.65 as the reference entry and 4.11 (one replicate of three) as a member of this library.
Background: pairings of library AAYL49 with three empty control strains gave a value in 15% of cases (median 4.06, 5th percentile 2.83). Values in that range, when seen in few replicates, are hard to tell from nonspecific mating. For each scFv, signals with the empty controls are counted beside the result.

* GFTLNSYGIS | VIYSDGHRTFYGDSVK | GRAAGGCDS -> no signal (0 of 3 replicates; controls 0 of 9)
* GFTLNSYGIS | VWYSDGQRTFYGDSVK | GRQAGTFDS -> no signal (0 of 3 replicates; controls 0 of 9)
* GFTKNSYGIS | VIYSDGMRTFYGDSVK | GRAAGTFDS -> 4.66 (3 of 3 replicates; controls 7 of 9)
* EFTLNSYGIS | VIYSDGYRTFYGDSVK | GRAAGTFTS -> no signal (0 of 3 replicates; controls 0 of 9)
* GFTLNSYGIS | VIYSDGCTTFYGDSVK | GRAAGTFIS -> no signal (0 of 3 replicates; controls 1 of 9)
* GFTLNSYGIS | VIYSDGCRTFYGDSIK | GRAAGTYDS -> no signal (0 of 3 replicates; controls 3 of 9)
* GFTLNSYGIS | VIYSDGLRTFYGDSAK | GRAAGAFDS -> 3.50 (3 of 3 replicates; controls 2 of 9)
* CFTLNSQGIS | VIYSDGHRTFYGDSVK | GRAAGTFDS -> 3.20 (1 of 3 replicates; controls 3 of 9)
* GFTLNSYGIG | VIYSDGSRTFYGDSVK | GRAAGMFDS -> 5.61 (1 of 3 replicates; controls 2 of 9)
* EFTLNSYGIS | VIYSDGARTFYGDSVK | GRAVGTFDS -> no signal (0 of 3 replicates; controls 1 of 9)
* GFTLNSYGIS | VIYSDGERTFYGWSVK | GRAAGTCDS -> 4.28 (1 of 3 replicates; controls 0 of 9)
* GFTVNSYGIS | MIYSDGVRTFYGDSVK | GRAAGTFDS -> 5.06 (1 of 3 replicates; controls 1 of 9)
* GFTLNSYGIS | VFYSDGMRTFYGDSVK | GRAAGTSDS -> no signal (0 of 3 replicates; controls 0 of 9)
* SFTLNSYGIS | VIYSDGMRTFYGDSVK | GRAAGTDDS -> no signal (0 of 3 replicates; controls 0 of 9)
* GFTLNSYGIS | VIYSDGQRTFYGNSVK | GRAAGTFRS -> 1.53 (3 of 3 replicates; controls 4 of 9)
* GFTLNSWGIS | VIYSDGKRTFYGDSVK | GRAAGTFDH -> 4.35 (2 of 3 replicates; controls 4 of 9)
* GFTLRSYGIS | VIYSDGENTFYGDSVK | GRAAGTFDS -> no signal (0 of 3 replicates; controls 1 of 9)
* GFTLNSYGIS | VIYSDGERTFMGDSVK | GRAAGTFWS -> no signal (0 of 3 replicates; controls 1 of 9)
* GFWLNSYGIS | VGYSDGIRTFYGDSVK | GRAAGTFDS -> no signal (0 of 3 replicates; controls 1 of 9)
* GFTLNSYGIS | VIYSHGVRTFYGDSVK | GRAAGDFDS -> 5.61 (1 of 3 replicates; controls 1 of 9)
* GFTLNSYGIS | VSYSDGWRTFYGDSVK | GRAAGTFDW -> no signal (0 of 3 replicates; controls 3 of 9)
* GFTLNSDGIG | VIYSDGHRTFYGDSVK | GRAAGTFDS -> 2.83 (1 of 3 replicates; controls 0 of 9)
* GFTLNSYWIS | VIYSDGERTFGGDSVK | GRAAGTFDS -> no signal (0 of 3 replicates; controls 0 of 9)
* GFTLNSYGIF | VIYSYGDRTFYGDSVK | GRAAGTFDS -> no signal (0 of 3 replicates; controls 0 of 9)
* GFTLWSYGIY | VIYSDGDRTFYGDSVK | GRAAGTFDS -> no signal (0 of 3 replicates; controls 1 of 9)
* GFTLNSYGIS | VIYSDGERTFYGDSLK | GRAAGTRDS -> no signal (0 of 3 replicates; controls 1 of 9)
* GFTLNSYGIS | VIYSDGSRTFYGDSVK | GRAACTFKS -> no signal (0 of 3 replicates; controls 0 of 9)
* GFTLNSYGIS | VIYSDGYRTFYDDSVK | GRAAGTFWS -> 1.34 (3 of 3 replicates; controls 0 of 9)
* GFTLNSYGIS | VIYSDGERTLYGDSVK | GRAAGFFDS -> 3.88 (1 of 3 replicates; controls 0 of 9)
* GFTVNSYGIS | VIYSDWTRTFYGDSVK | GRAAGTFDS -> 5.38 (3 of 3 replicates; controls 4 of 9)
* GTTLNSYGIS | VIYSDGERTFYGDSVK | GRAAGTFDS -> 1.66 (3 of 3 replicates; controls 3 of 9)
* PFTLNSYGIS | VIYSDGVRTFYGDSVK | GRAAGTFDS -> 1.61 (3 of 3 replicates; controls 2 of 9)
* GFTLNSYGNS | VIYSDGMRTFYGSSVK | GRAAGTFDS -> no signal (0 of 3 replicates; controls 1 of 9)